# Reference: PubChem BioAssay AID504651 (National Center for Advancing Translational Sciences (NCATS), 2011)
# Sequences of proteins named here, by UniProt entry; tags and fusion partners are left off.
# UniProt P21728, whole entry, looked up: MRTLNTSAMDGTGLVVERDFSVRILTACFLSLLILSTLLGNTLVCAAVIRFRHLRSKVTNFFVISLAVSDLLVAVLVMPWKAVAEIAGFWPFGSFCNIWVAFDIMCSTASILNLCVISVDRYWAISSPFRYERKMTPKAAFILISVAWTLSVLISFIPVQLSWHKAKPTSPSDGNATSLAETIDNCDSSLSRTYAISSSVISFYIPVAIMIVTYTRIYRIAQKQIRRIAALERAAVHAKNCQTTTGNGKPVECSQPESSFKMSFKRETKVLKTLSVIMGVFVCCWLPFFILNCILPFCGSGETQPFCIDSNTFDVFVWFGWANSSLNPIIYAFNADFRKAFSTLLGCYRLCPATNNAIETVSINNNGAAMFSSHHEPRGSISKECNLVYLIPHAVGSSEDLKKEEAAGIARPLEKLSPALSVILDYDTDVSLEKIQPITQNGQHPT
# The entries are a selection whose mix differs from that of the whole data set. Active and inactive are the calls of the source. Cut-off read from the data, not from the text of the source: active = potentiation above about 30%; inactive = the rest.
# Biological target: D(1A) dopamine receptor (Homo sapiens) (UniProt P21728)
# Assay: Potentiators of Human D1 Dopamine Receptor: qHTS; note: 0% is about no effect
# Details: HEK293 TREx D1 cells, calcium flux, dopamine EC20 potentiation; at 10 µM; active compounds read high
# Excerpt: Dopamine receptors (DARs) are involved in the etiology and/or therapy of a number of neuropsychiatric and endocrine disorders. For instance, all receptor-based antiparkinsonian drugs work via stimulating the D1 DAR subtype whereas all FDA-approved antipsychotic agents are antagonists of this receptor. […] There are three different types of allosteric modulators that we are seeking, two of which will stimulate or augment receptor signaling, allosteric agonists and potentiators, while the third, allosteric antagonists, will attenuate receptor signaling. The present primary screening assay measures compound potentiation of an EC20 dopamine response by tracking calcium flux in a […], inducible Hek293 Trex D1 cell line.
# NIH Chemical Genomics Center [NCGC]
# NIH Molecular Libraries Probe Centers Network [MLPCN]
# Assay Submitter (PI): David Sibley
# Freshly passaged cells are plated in 1536 well black, clear bottom plates at a density of 4000 cells/well in 3 ul of complete media containing 1x tetracycline inducer. After an overnight incubation at 30 C in 5% CO2, cells are loaded with 2 ul of the no wash Calcium Assay Kit (ABD Bioquest) and incubated at room temperature for 30 to 90 minutes. A 10 cycle (1 second/cycle) baseline measurement is taken and then the FDSS online 1536 pintool delivers 23 nl of compound library (as well as dopamine controls) to the plate. The plate is measured for kinetically at 1 cycle/sec for 180 seconds and is considered to be the agonist portion of the assay (eg, compounds which activate a positive calcium response during this portion are flagged as potential agonists). Following the 180 second read, 1 ul of an EC20 of dopamine is delivered by an onboard pipette head. Measurements are taken kinetically for an additional 180 seconds.
row,Structure (SMILES),potentiation
1,O=[N+]([O-])c1cc([N+](=O)[O-])c(-c2ccn[nH]2)s1,inactive: -2.25%
2,CC(C)NC(=O)NP(=O)(Oc1ccccc1)Oc1ccccc1,inactive: -0.422%
3,CCN(CC)C(=S)SC(NC=O)C(Cl)(Cl)Cl (stereo unspecified),inactive: -5.95%
4,CS(=O)(=O)c1cc([N+](=O)[O-])c2no[n+]([O-])c2c1,inactive: 0.75%
5,O=P(Nc1nccs1)(Oc1ccccc1)Oc1ccccc1,inactive: -2.35%
6,O=P(Nc1nccs1)(c1ccccc1)c1nc2ccccc2s1 (stereo unspecified),inactive: -0.65%
7,CCOP1(=S)c2c(C)nn(CCC#N)c2N=C(c2ccccc2F)N1C (stereo unspecified),inactive: 2.95%
8,O=C(O)COc1ccc([As](=O)(O)O)cc1[N+](=O)[O-],inactive: -4.5%
9,Nc1ccccc1[As](=O)(O)c1ccccc1,inactive: -4.3%
10,NC(=O)Nc1ccc([As](=O)(O)O)cc1,inactive: -1%
11,O=[N+]([O-])c1ccc2c(c1)nnn2O,inactive: -2.5%
12,CN(C(=O)Cc1ccccc1)[C@@H]1CC[C@]2(CCCO2)C[C@H]1N1CCCC1,inactive: -7%
13,CCOP1(=S)c2c(C)nn(CCC#N)c2N=C(c2ccc(F)cc2)N1C (stereo unspecified),inactive: -9.15%
14,N#CCCN(C(=O)COC(=O)C(O)(c1ccccc1)c1ccccc1)c1ccc(F)cc1,inactive: -3.1%
15,CS(=O)(=O)c1ccc(Cl)c(NC(=O)COC(=O)C(O)(c2ccccc2)c2ccccc2)c1,inactive: -4.11%
16,O=[As](O)(O)c1cccnc1,inactive: 6.35%
17,COc1cc(C(=O)NCC2(N3CCOCC3)CCCCC2)cc(Cl)c1OC(C)C,inactive: 0%
18,O=C(OC1CN2CCC1CC2)c1ccc(Cl)cc1 (stereo unspecified),inactive: -1.35%
19,Cc1cccc(OCC(=O)OC2CN3CCC2CC3)c1 (stereo unspecified),inactive: -7.8%
20,O=[As](O)(c1cccc(O)c1)c1cccc(O)c1,inactive: -1%
21,CCCOP(=S)(Nc1nc(N)cc(=O)[nH]1)OCCC,inactive: -0.55%
22,Cc1ccc(NCCc2c([N+](=O)[O-])cc([N+](=O)[O-])cc2[N+](=O)[O-])cc1,inactive: 6.7%
23,Nc1cccc2c([As](=O)(O)O)cccc12,inactive: -6.6%

row,Structure (SMILES),potentiation
1,CCOP(=O)(Nc1cccc2ccccc12)OCC,inactive: -2.8%
2,COc1cc(C2NCCC3(OCCO3)C2(C)C)cc(OC)c1OC (stereo unspecified),inactive: -3.45%
3,CCOP(=O)(Nc1ccc(C)cn1)OCC,inactive: -8.25%
4,CCOP(=O)(NC(=NC(C)c1ccccc1)NC(C)c1ccccc1)OCC (stereo unspecified),inactive: -1.85%
5,CCC1=CC2Cc3nc4ccc(Cl)cc4c(N)c3C(C1)C2 (stereo unspecified),inactive: 0.85%
6,O=P1(Nc2ccccn2)COc2ccccc2OC1,inactive: -6.9%
7,CC(C)(C)C(=O)NC(Sc1ncccn1)C(Cl)(Cl)Cl (stereo unspecified),inactive: -1.4%
8,Clc1n[nH]nc1-c1nn[nH][15n]1,inactive: -3.9%
9,COc1ccccc1CNC(=O)COC(=O)C(O)(c1ccccc1)c1ccccc1,inactive: 7.95%
10,O=[As](O)(c1ccccc1Br)c1ccccc1Br,inactive: 6.4%
11,CN(C(=O)Cc1ccc(Cl)c(Cl)c1)[C@@H]1CCCC[C@H]1N1CCCC1,inactive: -2.75%
12,CC(C)/C=N\N=C(\N)N[N+](=O)[O-],inactive: -2.6%
13,Cc1ccc(C(=O)OC2CN3CCC2CC3)cc1 (stereo unspecified),inactive: 9.05%
14,CC1CCC(C(C)C)C(OP(=O)(Nc2ccccn2)c2ccccc2)C1 (stereo unspecified),inactive: -0.3%
15,Cc1nn(-c2ccccc2)c2c1P(=O)(N1CCOCC1)N(C)C(c1ccccc1)=N2 (stereo unspecified),inactive: 3.95%
16,O=C(/C=C/c1ccccc1)OC1CN2CCC1CC2 (stereo unspecified),inactive: -4.5%
17,CN(C)C1(CNC(=O)c2ccc(S(C)(=O)=O)cc2)CCCCC1,inactive: -1.65%
18,O=P1(Nc2ncccn2)COc2ccccc2OC1,inactive: -4.1%
19,Cc1ccc(OCC(=O)OC2CN3CCC2CC3)cc1 (stereo unspecified),inactive: 3.45%
20,O=[As](O)(c1cccs1)c1cccs1,inactive: 5.65%
21,NS(=O)(=O)c1cccc(NC(=O)COC(=O)C(O)(c2ccccc2)c2ccccc2)c1,inactive: -2.75%
22,O=P1(Nc2ccc(Br)cn2)COc2ccccc2OC1,inactive: -6.25%
23,Nc1cccc([As](=O)(O)c2ccccc2)c1,inactive: -2.25%
